Source: patent publication US9340500B2, “Aromatic heterocyclic derivative having TRPV4-inhibiting activity” (SHIONOGI & CO., LTD., priority 2011, dated 2016)

Chains of the proteins cited; added tags and fusions are not shown.
UniProt Q9HBA0, whole entry: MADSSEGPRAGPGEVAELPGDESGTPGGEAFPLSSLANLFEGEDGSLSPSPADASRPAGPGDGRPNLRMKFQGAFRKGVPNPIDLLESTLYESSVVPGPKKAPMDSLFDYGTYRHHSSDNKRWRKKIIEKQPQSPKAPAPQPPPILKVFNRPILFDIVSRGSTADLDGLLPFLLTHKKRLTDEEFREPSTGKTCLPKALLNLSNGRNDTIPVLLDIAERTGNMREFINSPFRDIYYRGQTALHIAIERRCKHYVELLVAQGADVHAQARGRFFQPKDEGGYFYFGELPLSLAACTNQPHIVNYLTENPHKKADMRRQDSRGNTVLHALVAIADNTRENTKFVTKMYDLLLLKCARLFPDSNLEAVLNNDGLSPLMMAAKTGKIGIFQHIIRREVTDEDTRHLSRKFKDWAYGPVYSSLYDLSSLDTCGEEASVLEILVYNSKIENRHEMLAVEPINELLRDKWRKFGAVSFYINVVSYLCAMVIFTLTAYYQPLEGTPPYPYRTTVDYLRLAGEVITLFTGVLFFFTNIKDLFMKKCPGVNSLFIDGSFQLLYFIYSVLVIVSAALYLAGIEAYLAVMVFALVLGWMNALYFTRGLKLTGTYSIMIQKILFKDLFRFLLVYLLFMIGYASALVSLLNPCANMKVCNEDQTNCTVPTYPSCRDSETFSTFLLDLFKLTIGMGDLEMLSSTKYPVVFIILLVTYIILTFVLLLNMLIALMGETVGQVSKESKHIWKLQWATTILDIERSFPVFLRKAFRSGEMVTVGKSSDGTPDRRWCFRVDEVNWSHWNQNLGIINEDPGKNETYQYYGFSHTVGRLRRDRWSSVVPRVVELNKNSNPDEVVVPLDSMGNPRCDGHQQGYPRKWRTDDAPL

Target: human TRPV4 (Homo sapiens (Human), UniProt Q9HBA0)
Assay: Test Example 1: measurement of TRPV4 inhibitory activity (Fluo 4-AM, FLIPR TETRA, 4α-PDD 1 μmol/L)
Details: hTRPV4/CHO cells
Procedure: For each compound, TRPV4 inhibitory activity was measured using cells.
(1) The TRPV4 inhibitory activity was measured using CHO-K1 cells stably expressing human TRPV4 (hTRPV4/CHO cells).
(2) In the day before the experimental day, frozen cell were thawed and washed with the culture medium (MEM-α, 10% FBS, 2 mmol/L GlutaMax, 50 unit Penicillin, 50 μg/mL Streptomycin). Then cells were suspended in the culture medium.
(3) The 384-well plates which hTRPV4/CHO cells were seeded at densities of 4000 cells/well in the culture medium and cultured in a CO2 incubator in the presence of 5% CO2 at 37° C. for overnight was used as assay plates. […]
(7) Diluted compound solution was dispensed to each well in the compound plate, and mixed with built-in Pipette and Mixer of the Fluorescence analysis system FLIPR TETRA (Molecular devices). […]
(9) The fluorescent intensity was measured with FLIPR TETRA system for 10 min from the point of time addition the compound solution, at Ex 470-495 nm, Em 515-575 nm wavelength.
TRPV4 inhibitory activity (IC50 value and Ki value) of a compound was evaluated according to the following procedure.
(10) In the presence of the compound, the difference between maximal and minimal of fluorescent intensity value for 5 min from just before addition of 4α-PDD solution was calculated, and it was referred as Max-Min value. […]

FC(F)(F)c1cccc(Nc2ccc3c(c2)cc(-c2ccccc2)n3CCCN2CCOCC2)c1
IC50 (read-out: Test 1 IC50, 4α-PDD 1 μmol/L): 8 µM | Ki (read-out: Test 1 Ki, calculated from IC50 and 4α-PDD EC50): 3.9 µM
